Earlier results, collected in patent publication US9320750B2, “Compositions and methods of treatment of drug resistant cancers” (priority 2012, dated 2016).

Test system: TNBC patients
Details: randomized phase II trial; cited from earlier work

## cetuximab
  outcome on addition to carboplatin: did not improve outcome
